The nature of this test: signal-interfering artefacts in bead proximity readout – biochemical, AlphaScreen, HTS, counter-screen, dose response (AID 1259373). The conditions noted are these: AlphaScreen optical interference counterscreen, cell-free. For orientation: Bead proximity is the source of the signal in Alpha formats.

Experimental findings from PubChem BioAssay AID1259373 (The Scripps Research Institute Molecular Screening Center, 2018) are described below.

This is a selection; strong and weak results do not stand in their true shares. Activity calls are given as the source filed them. The rule behind the calls is not given here.

As usually defined, the IC50 is the midpoint of a concentration-inhibition curve. Take `CC(C)OP(=O)(OC(C)C)C(=O)c1ccco1`: the IC50 is inactive: > 7.35 µM.

For the molecule `Cc1ccc([N+](=O)[O-])c2no[n+]([O-])c12`, the IC50 entry was “inactive”.
